# The entries are a selection whose mix differs from that of the whole data set. Records with an inconclusive call do not appear. The source made the active and inactive calls. Calls come from the whole dose curve; as a rule, active = well fitted cell-killing curve with a large enough effect; inconclusive = small, poorly fitted or top-dose-only effect; inactive = no such curve, though single readings can be large or run the other way.
# Assay: qHTS Screen for Compounds that Selectively Target Cancer Cells with p53 Mutations: Cytotoxicity of p53ts Cells at the Permissive Temperature;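 note: 0% = DMSO and -100% = full killing by reference compound; nearly all actives have a fitted effect of over 55% in size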
# Details: H1299-p53A138V at 32C, ATP luminescence viability, 24 h; at 46.1 µM (top of the series) unless noted
row,SMILES,"activity change, negative = cytotoxicity"
1,Cc1nc2ccc3ccccc3c2s1.O=[N+]([O-])c1cc([N+](=O)[O-])c(O)c([N+](=O)[O-])c1,inactive: -4.41%
2,Cc1ccc([N+](=O)[O-])cc1[N+](=O)[O-],inactive: -2.14% [at 1.84 µM]
3,Cc1ccc(C)c(NP(C)(=O)Oc2ccccc2)c1 (stereo not given),inactive: 1.45%
4,Cc1ccc(NP(C)(=O)Oc2ccccc2)c(C)c1 (stereo not given),inactive: 9.54%
5,COc1ccccc1OP(C)(=O)Nc1ccc(C)cc1 (stereo not given),inactive: 10.2%
6,CP(=S)(Nn1cnnc1)Oc1ccccc1 (stereo not given),inactive: 2.59%
7,N1=C(c2nnc(-c3nn[nH]n3)nn2)NNN1,inactive: 2.42% [at 9.22 µM]
8,CCOP(C)(=S)SCC(=O)NC(C)C(=O)O (stereo not given),inactive: 2.97%
9,Cc1cc(C)cc(OP(C)(=O)Nc2ccc(SC(F)(F)F)cc2)c1 (stereo not given),inactive: -12.7%
10,CP(=O)(NC(=O)Nc1ccccc1)Oc1ccccc1 (stereo not given),inactive: -13.6%
11,Cc1cccc(C)c1OP(C)(=O)Nc1ccc(SC(F)(F)F)cc1 (stereo not given),inactive: -20.9%
12,OCCSCCO,inactive: -12.6%
13,COc1ccccc1OP(C)(=O)Nc1c(C)n(C)n(-c2ccccc2)c1=O (stereo not given),inactive: 0.15%
14,CP(=O)(Oc1ccccc1)N1CCOC1=O (stereo not given),inactive: -1.57%
15,N#[O+].[C-]#N.[C-]#N.[C-]#N.[C-]#N.[C-]#N.[Fe+2].[Na+].[Na+],inactive: 13%
16,COc1ccccc1OP(C)(=O)Nc1ccc(C)c(C)c1 (stereo not given),inactive: 4.95%
17,CP(=O)(Nc1ccccn1)Oc1ccccc1 (stereo not given),inactive: -1.39%
18,CP(=O)(Nc1ccccc1F)Oc1ccccc1 (stereo not given),inactive: 3.87%
19,CCN(CC)CCCOC(=O)C(O)(c1ccccc1)C1CCCCC1 (stereo not given),inactive: 3.95%
20,Cc1cccc([N+](=O)[O-])c1[N+](=O)[O-],inactive: 11% [at 1.84 µM]
21,CCC(C)(OO)OOC(C)(CC)OO (stereo not given),inactive: 2.88% [at 1.84 µM]
22,Cc1ccc([N+](=O)[O-])c([N+](=O)[O-])c1,inactive: -2.1% [at 1.84 µM]
23,Cc1c([N+](=O)[O-])cccc1[N+](=O)[O-],inactive: 10.2% [at 1.84 µM]
24,CN(C)CCOC(=O)C(O)(c1ccccc1)C1CCCCC1 (stereo not given),inactive: 2.7%
25,Cc1ccccc1NP(C)(=O)Nc1ccccc1C,inactive: 6.11%
26,CCN(CCCl)Cc1ccccc1C,inactive: 4.23%
27,NNC(NN)NN.n1nc(-c2nn[nH]n2)n[nH]1,inactive: -1.46% [at 9.22 µM]
28,CP(=O)(Nc1ccc2c(c1)OCCO2)Oc1ccccc1 (stereo not given),inactive: 5.97%
29,CCOP(C)(=S)SCC(=O)NC(C)(CC)C(=O)O (stereo not given),inactive: 10%
30,CCOP(=O)(CC)OCC,inactive: -15.3% [at 1.84 µM]

# — PubChem BioAssay AID924 (National Center for Advancing Translational Sciences (NCATS), 2007)
